Reference: US9522139B2, “Fructose 1, 6-biphosphatases as new targets for diagnosing and treating breast cancer brain metastasis” (The University of Houston System, priority 2011, dated 2016)

Tested on: MDA-MB-231Br3 cells
Experiment: Cell survival assay (trypan blue uptake) in glucose-free medium
Format: cell-based
Conditions: EGCG-treated cells, FIG. 2E

α-ketoglutarate [α-KG]
rescue of brain metastatic cells from GLUD inhibition by supplementation: completely rescues
